Measured values as given in US20050026219A1, “Process for label-free measurement of modified substrate” (Boehringer Ingelheim Pharma GmbH & Co. KG, priority 2001, published 2005).
Values joined by “and” are separate entries in the source; they are usually repeats but may differ in a detail not shown here. Identical values can stand only once.

Assay: Layer thickness formation (binding) on the phospho-tyrosine-diamino-PEG 2000 sensor surface, RIfS
Details: for Optical layer thickness (binding): EGF-RK buffer
Method: A conventional aminodextrane (AMD) sensor or a diamino PEG 2000 sensor is used (e.g. Schütz A., 2000; a) Piehler J., et al., 1996; Universität Tübingen, Inst. f. Physikalische and Theoretische Chemie, Germany.)
20 μl aliquots of the final solution are immediately added drop by drop to the sensor surface which is about 1 cm^2 in size, and incubated for 8 hours under DMF chamber saturation. Then the sensor is rinsed with DMF and dried in the air.
The EGF-RK buffer is used unless otherwise stated.
The buffer used is EGF-RK buffer.
The buffer used is EGF-RK buffer. As a control, buffer solution without the enzyme EGF-RK is measured.
The buffer used is EGF-RK buffer. As a control, buffer solution without EGF-RK is measured.
First, the antibody, then the kinase and the substrate are measured on their own in order to be able to evaluate any non-specific binding.

EGF-RK: EGF-RK isolated from human A 431 carcinoma cells (Messrs. Sigma)
Optical layer thickness (binding) (1 Unit/50 μl + 0.01% Brij 35 (v/v)): 0.000 nm
Optical layer thickness (binding) (1 Unit/50 μl, no Brij 35): 0.829 nm and 0.627 nm
Optical layer thickness (binding) (2 Units/50 μl + 0.01% Brij 35 (v/v)): 0.000 nm
Optical layer thickness (binding) (2 Units/50 μl, no Brij 35): 1.744 nm and 1.941 nm
Optical layer thickness (binding) (3 Units/50 μl): 2.134 nm
Optical layer thickness (binding) (4 Units/50 μl): 1.358 nm
Optical layer thickness (binding) (5 Units/50 μl): 1.144 nm
Optical layer thickness, component on its own (Table 8: EGF-RK buffer with Brij 35, substrate 10 μg/50 μl, EGF-RK 0.1 Unit/50 μl, EGF 0.5 μg/50 μl): 0 nm
Optical layer thickness, component on its own (Table 9: EGF-RK buffer with Brij 35, substrate 10 μg/50 μl, EGF-RK 2 Units/50 μl): 0.183 nm
Optical layer thickness, component on its own (Table 12: EGF-RK buffer with Brij 35, Raytide EL 2 μg/50 μl, EGF-RK 0.5 Units/50 μl): 0.043 nm
